ChEMBL document CHEMBL1125382, “Benzazepinone calcium channel blockers. 2. Structure-activity and drug metabolism studies leading to potent antihypertensive agents. Comparison with benzothiazepinones” (J Med Chem, 1992)

Species: Oryctolagus cuniculus
Assay: Vasorelaxant effects in circumferential strips of potassium-depolarized rabbit aorta. (IC50 in rabbit aorta strips contracted with KCl(95% confidence interval))
Format: functional, organism-based
Procedure, shortened: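 Circumferential strips of rabbit thoracic aorta, contracted by depolarization with 100 mM KCl, then exposed to various concentrations of compound.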

## COc1ccc([C@@H]2Cc3cc(OC)ccc3N(CCN(C)C)C(=O)[C@@H]2OC(C)=O)cc1.Cl
  IC50: 1900 nM
